AlphaSeq binding of Ab-14 light chain variants to a spike HR2 peptide

From the AlphaSeq antibody data of Li et al. 2023 (doi:10.1038/s41467-023-39022-2), copy in the FLAb collection.

Antigen: PDVDLGDISGINAS, a 14-residue peptide of the SARS-CoV-2 spike HR2 region.

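The starting antibody came from a phage panning campaign against this peptide. The variants were designed computationally from a first round of random CDR variants and then made and measured. Their group label is 14L_GP_Gibbs (GP: Gaussian process model; Gibbs: Gibbs sampling; a sequence that several methods proposed may carry one label only). AlphaSeq pools MATa yeast showing the antibodies with MATalpha yeast showing the peptide. Mating (16 h, 30 °C) was followed by selection of diploids and sequencing of their barcodes. Read counts were normalised to the haploid input and turned into Kd by a linear fit to BCL2-family pairs of known affinity, for each replicate. There are six technical replicates.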

Parent: Ab-14, a human scFv built as VH, three GGGGS repeats, VL. Only the CDRs of the light chain vary.
VH: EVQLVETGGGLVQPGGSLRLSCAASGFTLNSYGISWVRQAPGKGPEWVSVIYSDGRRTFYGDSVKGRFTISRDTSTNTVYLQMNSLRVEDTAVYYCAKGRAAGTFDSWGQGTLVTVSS
VL: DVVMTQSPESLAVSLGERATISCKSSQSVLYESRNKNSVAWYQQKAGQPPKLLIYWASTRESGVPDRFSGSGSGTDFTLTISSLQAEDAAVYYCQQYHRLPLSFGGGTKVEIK

The whole VL of each variant is written out. Numbers give log10(Kd / nM), so 0 is 1 nM and 3 is 1 µM. Smaller is tighter. In the paper, a design with two or fewer of six values counts as a poor binder.

| VL | log10 Kd, replicates | signal with controls |
|---|---|---|
| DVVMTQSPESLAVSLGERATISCKSSPSMLYEERMDNSVAWYQQKAGQPPKLLIYNASQRESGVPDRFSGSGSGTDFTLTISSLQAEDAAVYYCQQYHRLPLSFGGGTKVEIK | 0.29 0.08 0.02 0.21 0.20 0.34 | 0/18 |
| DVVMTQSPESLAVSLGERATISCKSQGGNLYESRNWNSVAWYQQKAGQPPKLLIYKASTRLQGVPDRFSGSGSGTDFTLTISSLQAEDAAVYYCQQYHRLPLSFGGGTKVEIK | 0.58 0.77 0.79 1.15 0.52 0.72 | 1/18 (2.08) |
| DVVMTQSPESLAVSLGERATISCKQSWSELYGSRNKNSVAWYQQKAGQPPKLLIYDASQRESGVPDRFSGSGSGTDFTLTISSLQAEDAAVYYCQQYHRLPLSFGGGTKVEIK | 0.03 0.14 0.01 -0.30 -0.18 0.16 | 1/18 (3.41) |
| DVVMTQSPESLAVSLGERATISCKLQMMVEMESRNKMSVAWYQQKAGQPPKLLIYSASTRLSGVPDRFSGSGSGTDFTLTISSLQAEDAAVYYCQQYHRLPLSFGGGTKVEIK | 0.02 -0.07 -0.35 0.17 -0.21 -0.15 | 0/18 |
| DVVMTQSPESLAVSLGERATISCKLEQSMLYESRNDNSVAWYQQKAGQPPKLLIYHASMRESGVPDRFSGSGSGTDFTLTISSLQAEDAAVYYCQQYHRLPLFFGGGTKVEIK | -0.08 -0.11 -0.16 -0.36 -0.35 0.00 | 1/18 (2.26) |
| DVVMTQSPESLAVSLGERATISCKMAQGWMYESRMKNSVAWYQQKAGQPPKLLIYNASVRESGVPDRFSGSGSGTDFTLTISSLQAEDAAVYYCQQYHRLPLSFGGGTKVEIK | -0.07 -0.16 -0.26 -0.40 -0.21 -0.17 | 1/18 (2.46) |
| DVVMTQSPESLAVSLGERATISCKQQQGELYMSRNKNSVAWYQQKAGQPPKLLIYDASQRESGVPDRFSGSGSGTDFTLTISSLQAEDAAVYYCQQYHRLPLSFGGGTKVEIK | 0.05 -0.32 -0.32 -0.29 -0.25 0.04 | 0/18 |
| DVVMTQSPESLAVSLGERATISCKFEQSWLYESRNVNSVAWYQQKAGQPPKLLIYNASTRSQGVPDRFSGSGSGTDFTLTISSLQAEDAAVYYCQQYHRLPLSFGGGTKVEIK | -0.24 -0.34 -0.45 -0.48 -0.54 -0.17 | 1/18 (2.64) |
| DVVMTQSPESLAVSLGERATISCKLQMQMLYESRMMNSVAWYQQKAGQPPKLLIYDASVRESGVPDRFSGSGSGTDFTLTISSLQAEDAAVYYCQQYHRLPLSFGGGTKVEIK | -0.15 -0.21 -0.31 -0.35 -0.25 -0.16 | 0/18 |
| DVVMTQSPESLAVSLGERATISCKLMWSVEYESRNQNSVAWYQQKAGQPPKLLIYSASYRESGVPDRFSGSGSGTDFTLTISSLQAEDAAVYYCQQYHRLPLSFGGGTKVEIK | 1.24 0.71 0.77 0.69 0.78 0.98 | 2/18 (3.21) |
| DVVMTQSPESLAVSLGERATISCKVEGSHLYESRNGNSVAWYQQKAGQPPKLLIYNASTREDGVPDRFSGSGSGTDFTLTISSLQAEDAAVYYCQQYHRLPLSFGGGTKVEIK | 0.28 0.36 0.40 0.17 0.49 0.49 | 0/18 |
| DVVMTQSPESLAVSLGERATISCKFSQEVLMESRNMNSVAWYQQKAGQPPKLLIYNASTREEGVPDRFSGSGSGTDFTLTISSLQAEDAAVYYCQQYHRLPLSFGGGTKVEIK | 0.73 -0.14 0.08 -0.11 -0.13 -0.32 | 0/18 |
| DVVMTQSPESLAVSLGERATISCKSPQSHPYGSRNKNSVAWYQQKAGQPPKLLIYNASERESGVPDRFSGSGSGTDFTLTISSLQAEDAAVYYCQQYHRLPLSFGGGTKVEIK | 0.35 0.91 0.71 0.43 0.87 1.61 | 0/18 |
| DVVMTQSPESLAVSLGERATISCKVSQSQCYEERNKNNVAWYQQKAGQPPKLLIYQASDRMSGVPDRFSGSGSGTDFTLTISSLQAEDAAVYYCQQYHRLPLSFGGGTKVEIK | -0.07 -0.11 -0.20 -0.30 -0.36 -0.13 | 3/18 (3.64) |
| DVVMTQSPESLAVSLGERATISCKVQYSMDYESRNKNSVAWYQQKAGQPPKLLIYEASDRESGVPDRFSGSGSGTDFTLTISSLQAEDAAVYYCQDYHRLPLSFGGGTKVEIK | 0.63 1.21 0.98 0.67 1.40 1.03 | 0/18 |
| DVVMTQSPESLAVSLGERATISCKLSWSVEYQDRLSNSVAWYQQKAGQPPKLLIYDASQREWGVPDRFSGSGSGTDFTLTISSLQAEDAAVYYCQQYHRLPLSFGGGTKVEIK | 0.30 0.29 0.12 0.09 0.06 0.12 | 1/18 (2.53) |
| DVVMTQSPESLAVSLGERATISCKLQQSELYMSRNCNSVAWYQQKAGQPPKLLIYDASQRESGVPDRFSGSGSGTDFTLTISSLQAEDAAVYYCQQYHRLPLSFGGGTKVEIK | 1.11 1.56 1.22 1.37 1.41 1.34 | 0/18 |
| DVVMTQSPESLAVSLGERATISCKQPVLKLYGSRNKNSVAWYQQKAGQPPKLLIYEASTRESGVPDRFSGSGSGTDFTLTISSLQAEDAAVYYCQQYHRLPLSFGGGTKVEIK | 0.73 0.52 0.39 0.71 0.59 0.53 | 0/18 |
| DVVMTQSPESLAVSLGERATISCKIYQSGPYESRNKNSVAWYQQKAGQPPKLLIYSASTRESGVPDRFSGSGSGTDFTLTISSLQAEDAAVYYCQQYHRLPLSFGGGTKVEIK | 0.64 0.42 1.01 0.13 0.44 0.62 | 2/18 (2.89) |

Background: pairings of all light chain designs with three empty control strains gave a value in 4% of cases (median 2.64, 5th percentile 1.59). Values in that range, when seen in few replicates, are hard to tell from nonspecific mating. Also given: how often the same scFv was detected with the empty control strains, with their mean in brackets. A sequence measured in both rounds can read differently, since the two assays cover different ranges.